The test deals with mTORC1 (UniProt P42345). Briefly: cryo-EM structure; mTORC1-RMC-5552-FKBP12 complex; about 800 000 particles, map of 3.1 Å with 2-fold symmetry; final monomeric map of 2.9 Å (PDB 8ERA).

Consider “mTORC1 (from UniProt P42345 1-2549; Q8N122 1-1335; Q9BVC4 1-326) (complex)”, for which the stoichiometry N (commonly a count of units in the complex or per binding partner) was determined as 2.
